Measured values as given in paper doi:10.1101/2025.05.27.25328314.

The chains behind the UniProt entries cited, without tags or fusion partners. Residues count along the entry.
UniProt Q9UBS5, 20-961: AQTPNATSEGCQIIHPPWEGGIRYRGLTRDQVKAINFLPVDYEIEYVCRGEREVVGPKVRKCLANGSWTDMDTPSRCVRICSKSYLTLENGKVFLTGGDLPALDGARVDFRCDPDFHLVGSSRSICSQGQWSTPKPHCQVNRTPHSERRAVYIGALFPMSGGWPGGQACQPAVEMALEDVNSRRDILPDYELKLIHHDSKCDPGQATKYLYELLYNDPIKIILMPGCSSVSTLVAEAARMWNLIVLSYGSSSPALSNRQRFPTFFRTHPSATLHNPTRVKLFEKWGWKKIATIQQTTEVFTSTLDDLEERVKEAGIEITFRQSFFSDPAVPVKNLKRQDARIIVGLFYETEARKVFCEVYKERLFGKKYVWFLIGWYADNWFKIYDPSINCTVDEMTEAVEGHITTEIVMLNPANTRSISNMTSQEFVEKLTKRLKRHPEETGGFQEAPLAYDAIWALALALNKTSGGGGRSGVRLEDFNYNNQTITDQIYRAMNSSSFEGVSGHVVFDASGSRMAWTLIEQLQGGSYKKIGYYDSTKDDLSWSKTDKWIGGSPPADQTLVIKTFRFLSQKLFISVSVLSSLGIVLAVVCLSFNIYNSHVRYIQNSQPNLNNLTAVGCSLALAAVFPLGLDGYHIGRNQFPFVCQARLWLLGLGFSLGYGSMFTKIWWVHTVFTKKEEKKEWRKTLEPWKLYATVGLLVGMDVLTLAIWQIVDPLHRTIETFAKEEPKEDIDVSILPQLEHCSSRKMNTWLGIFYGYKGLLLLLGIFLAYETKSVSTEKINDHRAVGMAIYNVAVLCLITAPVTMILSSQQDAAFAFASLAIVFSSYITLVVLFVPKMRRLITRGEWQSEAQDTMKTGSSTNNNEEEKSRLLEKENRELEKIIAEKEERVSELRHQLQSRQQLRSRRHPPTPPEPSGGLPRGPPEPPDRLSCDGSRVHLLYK

Assays:
[1] = molecular target: type B γ-aminobutyric acid receptor 1 (GABAB1R) (human (endogenous in parathyroid tissue)) (UniProt Q9UBS5)
[2] = molecular target: T1, extracellular Ca2+-sensing receptor (CaSR) (human (endogenous in parathyroid tissue)) (UniProt P41180)
T1 sequence: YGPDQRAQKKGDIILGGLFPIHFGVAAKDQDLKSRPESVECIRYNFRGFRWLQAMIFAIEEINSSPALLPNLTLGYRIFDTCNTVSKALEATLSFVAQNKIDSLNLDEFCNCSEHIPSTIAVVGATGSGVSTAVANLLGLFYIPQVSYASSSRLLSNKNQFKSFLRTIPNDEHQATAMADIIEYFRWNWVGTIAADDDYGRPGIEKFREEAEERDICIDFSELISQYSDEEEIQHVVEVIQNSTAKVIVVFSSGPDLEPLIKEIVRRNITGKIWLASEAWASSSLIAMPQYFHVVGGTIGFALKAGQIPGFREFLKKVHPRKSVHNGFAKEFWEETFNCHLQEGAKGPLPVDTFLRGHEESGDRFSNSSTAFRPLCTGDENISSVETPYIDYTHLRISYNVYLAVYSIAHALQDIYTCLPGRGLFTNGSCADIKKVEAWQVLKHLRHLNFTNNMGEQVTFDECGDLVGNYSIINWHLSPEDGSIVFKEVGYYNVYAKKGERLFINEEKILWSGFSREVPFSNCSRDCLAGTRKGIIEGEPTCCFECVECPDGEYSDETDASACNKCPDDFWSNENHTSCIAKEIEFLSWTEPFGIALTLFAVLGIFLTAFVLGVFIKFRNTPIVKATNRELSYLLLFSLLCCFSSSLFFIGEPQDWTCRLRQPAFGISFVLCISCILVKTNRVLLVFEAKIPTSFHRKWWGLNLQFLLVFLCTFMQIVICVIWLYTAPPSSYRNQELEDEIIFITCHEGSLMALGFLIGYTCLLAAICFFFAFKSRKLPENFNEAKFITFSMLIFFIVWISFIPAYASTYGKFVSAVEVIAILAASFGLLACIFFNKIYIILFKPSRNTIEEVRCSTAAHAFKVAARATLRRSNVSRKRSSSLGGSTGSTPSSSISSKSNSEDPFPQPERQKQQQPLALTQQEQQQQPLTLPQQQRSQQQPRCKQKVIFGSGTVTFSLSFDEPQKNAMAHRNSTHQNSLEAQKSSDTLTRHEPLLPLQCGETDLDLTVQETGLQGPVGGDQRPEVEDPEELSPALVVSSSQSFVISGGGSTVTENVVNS

rate of PTH secretion of parathyroid glands cultured from PTCApp−/− mice (mouse receptors), Aβ42 0.3 to 1000 nM at 1 mM [Ca2+]e; EC50 [1]: 5.6 nM
rate of PTH secretion of parathyroid glands cultured from PTCApp−/− mice (mouse receptors), Aβ42 0.3 to 1000 nM at 1 mM [Ca2+]e; EC50 [2]: 5.6 nM
Substance: β-amyloid peptide Aβ42 (Aβ1–42) (from UniProt P05067 672-713)
